According to patent publication US9822157B2 (priority 2013, dated 2017):
pEC50: −log10 of the molar value. Where two headings read alike, the source gives them in different places.

Target: T1, human ferroportin (Homo sapiens, UniProt Q9NP59)
T1 sequence (Q9NP59 1-571): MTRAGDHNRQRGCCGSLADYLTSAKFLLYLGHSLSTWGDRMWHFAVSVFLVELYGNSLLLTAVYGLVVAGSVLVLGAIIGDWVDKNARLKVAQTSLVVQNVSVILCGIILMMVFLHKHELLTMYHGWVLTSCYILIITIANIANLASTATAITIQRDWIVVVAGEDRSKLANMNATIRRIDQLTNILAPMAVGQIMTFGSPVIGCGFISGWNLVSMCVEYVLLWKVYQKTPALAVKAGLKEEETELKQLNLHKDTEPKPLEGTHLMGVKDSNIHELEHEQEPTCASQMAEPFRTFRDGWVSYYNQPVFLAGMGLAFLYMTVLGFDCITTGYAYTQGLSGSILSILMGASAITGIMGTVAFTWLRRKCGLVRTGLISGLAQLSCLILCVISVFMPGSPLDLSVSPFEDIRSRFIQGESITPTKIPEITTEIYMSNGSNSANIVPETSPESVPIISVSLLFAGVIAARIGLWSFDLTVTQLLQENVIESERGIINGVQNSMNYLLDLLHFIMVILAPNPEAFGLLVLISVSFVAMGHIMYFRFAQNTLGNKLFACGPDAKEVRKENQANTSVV
Format: cell-based
Description: The cDNA encoding the human ferroportin (SLC40A1) was cloned from a cDNA clone from Origene (NM_014585). The DNA encoding the ferroportin was amplified by PCR using primers also encoding terminal restriction sites for subcloning, but without the termination codon. The ferroportin receptor was subcloned into a mammalian GFP expression vector containing a neomycin (G418) resistance marker in such that the reading frame of the ferroportin was fused in frame with the GFP protein. The fidelity of the DNA encoding the protein was confirmed by DNA sequencing. HEK293 cells were used for transfection of the ferroportin-GFP receptor expression plasmid. The cells were grown according to standard protocol in growth medium and transfected with the plasmids using Lipofectamine (manufacturer's protocol, Invitrogen). […] The cells were propagated and frozen in aliquots.
Compound was added to desired final concentration for at least 18 hours in the incubator. […] Compound was added to desired final concentration for at least 18 hours but no more than 24 hours in the incubator.
A retro inverse peptide is a peptide with a reversed sequence in all D amino acids. […] The EC50 of these reference compounds for ferroportin degradation was determined according to the activity assay described above.

[1] = Hepcidin analog peptides, read-out: Potency EC50
[2] = read-out: Log dilutions EC50 (nM) (n > 3) (converted), peptide dimers, various linkers at different positions
[3] = read-out: Log dilutions EC50 (nM) (n > 3) (converted), monomers and dimers through a glycol linker on εN of lysine
[4] = read-out: EC50 (nM) (n > 3), peptide dimers, dimer position explored (DIG linker)
[5] = read-out: EC50 (nM) (n = 3), in vitro activity as in Example 2, peptide monomers and dimers dimerized through a single disulphide linkage, n = 3

## 4,4-5,5-6,6,6-Heptafluorohexanoic acid-DTHFPCIKFGPRSKGWVCK-NH2 [Compound 246]
[1]
  pEC50: 6.32

## 5-Methylpentanoic acid-DTHFPCIKFGPRSKGWVCK-NH2 [Compound 167]
[1]
  pEC50: 7.00

## (Hy-DTHFPCIKF-NH2)2-[IDA-(β-Ala)] [Compound 348]
[2]
  EC50: 18 nM

## (Isovaleric acid-DTHFPCIIFGPRSRGWVCK-NH2)2-[DIG] [Compound 352]
[3]
  EC50: 5 nM

## (Isovaleric acid-DTHFPCIKF-NH2)2 DIG through K8 [Compound 342]
[4]
  EC50: 10 nM

## (Isovaleric acid-DTHFPCIKF-NH2)2 [Compound 326]
[5]
  EC50: 3 nM
[4]
  EC50: 3 nM
[2]
  EC50: 6 nM

## (Isovaleric acid-DTHFPCIKF-NH2)2-[IDA-(β-Ala)-Palm] [Compound 349]
[2]
  EC50: 5 nM

## (Isovaleric acid-DTHFPCIKFK-NH2)2 DIG through K10 [Compound 346]
[4]
  EC50: 15 nM
[2]
  EC50: 15 nM

## (Isovaleric acid-DTHFPCIKFK-NH2)2 [Compound 345]
[4]
  EC50: 8 nM
[2]
  EC50: 8 nM

## (Isovaleric acid-DTHFPCIRK-NH2)2 DIG through K9 [Compound 344]
[4]
  EC50: 45 nM

## (Isovaleric acid-DTHFPCIRK-NH2)2 [Compound 343]
[4]
  EC50: 11 nM

## (Isovaleric acid-DTHFPICIFGPRSKGWVC-NH2)2-[DIG] [Compound 353]
[3]
  EC50: 2.2 nM

## (Isovaleric acid-DTKFPCIRF-NH2)2 DIG through K3 [Compound 340]
[4]
  EC50: 212 nM

## (Isovaleric acid-DTKFPCIRF-NH2)2 [Compound 329]
[4]
  EC50: 9 nM

## Ac-DTHFPICIF-K(PEG8)-PRSKGWVCM-NH2 [Compound 76]
[1]
  pEC50: 6.21

## Cyclohexanoic acid-DTHFPCIKFGPRSKGWVCK-NH2 [Compound 168]
[1]
  pEC50: 7.52

## DIG-(DTHFPCIKF-NH2)2 DIG through N-terminus [Compound 328]
[4]
  EC50: > 1000 nM

## DTHFPICIFGARSKGWVCM-NH2 [Compound 354]
read-out: EC50 (nM) (n > 3), alanine scan of Compound 18
  EC50: 153 nM

## Heptanoic acid-DTHFPCIKFGPRSKGWVCK-NH2 [Compound 169]
[1]
  pEC50: 7.04

## Hexanoic acid-DTHFPCIKFGPRSKGWVCK-NH2 [Compound 166]
[1]
  pEC50: 7.44

## Hy-DTH-[Dpa]-PCIIFGPRSRGWVCK-NH2 [Compound 78]
[1]
  pEC50: < 6.00

## Hy-DTHF-[bh-Pro]-CIIFGPRSRGWVCK-NH2 [Compound 79]
[1]
  pEC50: < 6.00

## Hy-DTHFPCI-K(IVA)-FGPRSKGWVCK-NH2 [Compound 204]
[1]
  pEC50: < 6.52

## Hy-DTHFPCIF-NH2 [Compound 293]
read-out: EC50 (n = 3), cells printed in μM, in vitro activity as in Example 2, peptide monomers and dimers dimerized through a single disulphide linkage, n = 3
  EC50: > 1000 nM

## Hy-DTHFPCIIFGPRSRGWVCK-NH2 [Compound 83]
[1]
  pEC50: < 6.00

## Hy-DTHFPCIKF-K(IVA)-PRSKGWVCK-NH2 [Compound 205]
[1]
  pEC50: < 6.52

## Hy-DTHFPIC1IFVC2GHRSIC2YRRC1R-NH2 [Compound 12]
[1]
  pEC50: 7.11

## Hy-DTHFPIC1IFVC2HRSKGC2YRAC1-NH2 [Compound 14]
[1]
  pEC50: 7.16

## Hy-DTHFPIC1IFVC2HRSKGC2YRRC1R-NH2 [Compound 19]
[1]
  pEC50: 6.85

## Ida-THFPCIKFEPRSK-K(isoGlu-Palm)CK-NH2 [Compound 244]
[1]
  pEC50: 7.60

## Ida-THFPCIKFEPRSKGWVC-K(mysteric acid)-NH2 [Compound 254]
[1]
  pEC50: 7.70

## Isobutyric acid-DTHFPCIKFGPRSKGWVCK-NH2 [Compound 162]
[1]
  pEC50: 7.39

## Isobutyric acid-DTHFPIC1IFVC2HRSKGC2YRRC1R-NH2 [Compound 13]
[1]
  pEC50: 7.20

## Isobutyric acid-DTHFPIC1IFVC2HRSKGC2YRRC1R-NH2 [Compound 17]
[1]
  pEC50: 7.03

## Isobutyric acid-PEG11-DTHFPCIIFGPRSRGWVCK-NH2 [Compound 109]
[1]
  pEC50: < 6.00

## Isovaleric acid-AAHFPCIKFGPRSKGWVCK-NH2 [Compound 233]
[1]
  pEC50: 6.49

## Isovaleric acid-ATHFPCIKFGPRSKGWVCK-NH2 [Compound 234]
[1]
  pEC50: 7.22

## Isovaleric acid-DTAFPCIIFGPRSKGWVCK-NH2 [Compound 146]
[1]
  pEC50: 7.62

## Isovaleric acid-DTAFPCIKFEPRSKEC-NH2 [Compound 267]
[1]
  pEC50: < 6.00

## Isovaleric acid-DTHAPCIKFGPRSKGWVCK-NH2 [Compound 236]
[1]
  pEC50: < 6.30

## Isovaleric acid-DTHF-[Sarc]-CIIFGPRSKGWVCK-NH2 [Compound 126]
[1]
  pEC50: 7.51

## Isovaleric acid-DTHFGCIIFGPRSKGWVCK-NH2 [Compound 122]
[1]
  pEC50: 7.24

## Isovaleric acid-DTHFKCIEFGPRSKGWVCK-NH2 [Compound 140]
[1]
  pEC50: < 6.00

## Isovaleric acid-DTHFKCIIFGPRSKGWVCK-NH2 [Compound 130]
[1]
  pEC50: 6.82

## Isovaleric acid-DTHFPC1IIFVC2HRPKGC2YRRVC1R-NH2 [Compound 148]
[1]
  pEC50: 8.66

## Isovaleric acid-DTHFPC-[Dapa]-IFGPRSKGWDCK-NH2 [Compound 117]
[1]
  pEC50: 7.19

## Isovaleric acid-DTHFPCI-K(Betaine)-FGPRSKGWVCK-NH2 [Compound 158]
[1]
  pEC50: 7.80

## Isovaleric acid-DTHFPCI-K(PEG8)-FGPRSKGWVCK-NH2 [Compound 149]
[1]
  pEC50: 8.05

## Isovaleric acid-DTHFPCI-K(Palm)-FGPRSKGWVCK-NH2 [Compound 194]
[1]
  pEC50: 8.40

## Isovaleric acid-DTHFPCI-K(dapa-Palm)-FEPRSKGCK-NH2 [Compound 225]
[1]
  pEC50: 7.77

## Isovaleric acid-DTHFPCI-K(isoglu-Palm)-FEPRSKGCK-NH2 [Compound 218]
[1]
  pEC50: 8.00

## Isovaleric acid-DTHFPCI-[Dapa]-FGPRSKGWDCK-NH2 [Compound 118]
[1]
  pEC50: 7.77

## Isovaleric acid-DTHFPCI-[Dapa]-FGPRSKGWECK-NH2 [Compound 120]
[1]
  pEC50: 7.82

## Isovaleric acid-DTHFPCIEFGPRSKGWTCK-NH2 [Compound 155]
[1]
  pEC50: 7.42

## Isovaleric acid-DTHFPCIFEPRSKGCK-NH2 [Compound 185]
[1]
  pEC50: 7.27

## Isovaleric acid-DTHFPCIFEPRSKGWCK-NH2 [Compound 186]
[1]
  pEC50: 7.92

## Isovaleric acid-DTHFPCIFFGPRSKGWVCK-NH2 [Compound 6]
[1]
  pEC50: 7.64

## Isovaleric acid-DTHFPCIIF-NH2 [Compound 288]
[1]
  pEC50: 7.80
[5]
  EC50: 16 nM

## Isovaleric acid-DTHFPCIIFEPRSKGWVCK-NH2 [Compound 142]
[1]
  pEC50: 8.05

## Isovaleric acid-DTHFPCIIFEPRSKGWVCKKKK-NH2 [Compound 144]
[1]
  pEC50: 7.82

## Isovaleric acid-DTHFPCIIFGPKSKGWVCK-NH2 [Compound 111]
[1]
  pEC50: 7.92

## Isovaleric acid-DTHFPCIIFGPRSKGCK-NH2 [Compound 115]
[1]
  pEC50: 7.68
In vitro activity (EC50) tested as in Example 2, read-out: In Vivo Activity EC50
  pEC50: 7.68

## Isovaleric acid-DTHFPCIIFGPRSKGVC-NH2 [Compound 114]
[1]
  pEC50: 7.74

## Isovaleric acid-DTHFPCIIFGPRSKGWACK-NH2 [Compound 141]
[1]
  pEC50: 7.96

## Isovaleric acid-DTHFPCIIFGPRSKGWCK-NH2 [Compound 113]
[1]
  pEC50: 7.82

## Isovaleric acid-DTHFPCIIFGPRSKGWECK-NH2 [Compound 172]
[1]
  pEC50: 7.82

## Isovaleric acid-DTHFPCIIFGPRSKGWKCK-NH2 [Compound 171]
[1]
  pEC50: 7.32

## Isovaleric acid-DTHFPCIIFGPRSKGWTCK-NH2 [Compound 7]
[1]
  pEC50: 7.62

## Isovaleric acid-DTHFPCIIFGPRSKGWVC-NH2 [Compound 4]
[1]
  pEC50: 7.72

## Isovaleric acid-DTHFPCIIFGPRSKGWVCK-NH2 [Compound 11]
[1]
  pEC50: 8.05

## Isovaleric acid-DTHFPCIIFGPRSKGWVCKK-NH2 [Compound 145]
[1]
  pEC50: 8.05

## Isovaleric acid-DTHFPCIIFGPRSKGWVCKKKK-NH2 [Compound 143]
[1]
  pEC50: 7.62

## Isovaleric acid-DTHFPCIIFGPRSRGWVC-K(PEG2)-NH2 [Compound 180]
[1]
  pEC50: 8.05

## Isovaleric acid-DTHFPCIIFGPRSRGWVC-K(PEG4)-NH2 [Compound 179]
[1]
  pEC50: 8.40
